Consider three compounds from ChEMBL document CHEMBL5042488, “Synthesis, biological, and structural explorations of a series of μ-opioid receptor (MOR) agonists with high G protein signaling bias” (Eur J Med Chem, 2022).

By UniProt entry, the sequences of proteins in these tests, tags left out.
UniProt P35372, whole entry: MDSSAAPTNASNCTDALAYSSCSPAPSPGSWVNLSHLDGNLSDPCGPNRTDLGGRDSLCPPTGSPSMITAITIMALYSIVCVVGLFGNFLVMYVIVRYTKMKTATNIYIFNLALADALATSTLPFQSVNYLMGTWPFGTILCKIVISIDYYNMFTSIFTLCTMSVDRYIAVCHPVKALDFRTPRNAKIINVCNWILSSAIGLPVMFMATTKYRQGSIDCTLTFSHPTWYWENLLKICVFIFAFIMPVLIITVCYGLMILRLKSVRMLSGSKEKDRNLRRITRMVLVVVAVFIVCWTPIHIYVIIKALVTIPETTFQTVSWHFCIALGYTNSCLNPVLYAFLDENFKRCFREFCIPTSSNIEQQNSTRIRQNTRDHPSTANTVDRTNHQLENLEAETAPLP

For experiment [1], the target named is T1, Mu-type opioid receptor (Homo sapiens, UniProt P35372). As to the kind of experiment: Agonist activity at mu opioid receptor (unknown origin) assessed as maximal beta arrestin-2 recruitment incubated for 3 days by PathHunter assay relative to DAMGO. It counts as functional. To be noted: time 3.0 day.
Experiment [2] addresses T1, Mu-type opioid receptor. The experiment can be described thus: Agonist activity at mu opioid receptor (unknown origin) assessed as maximal cAMP level incubated for 40 mins by spectrophotometry relative to DAMGO. Format: functional. To be noted: filed as agonist.

As usually defined, the Emax is the size of the effect at its maximum, as opposed to the concentration needed.

As to `Fc1ccc([C@]2(CCNCc3cccs3)CCOC3(CCOC3)C2)cc1` (stereo partly specified), the Emax on Mu-type opioid receptor [1] worked out at 0.5%; at Mu-type opioid receptor [2], 80.6%.
As for `Fc1ccc([C@]2(CCNCc3scc4c3CCC4)CCOC3(CCOC3)C2)cc1` (stereo partly specified), the maximal effect (Emax) at Mu-type opioid receptor [1] worked out at 1%; at Mu-type opioid receptor [2], 97%.
Turning to `Fc1ccc([C@]2(CCNCc3scc4c3COC4)CCOC3(CCOC3)C2)cc1` (stereo partly specified), the Emax is 3.2% at Mu-type opioid receptor [1] and 83% at Mu-type opioid receptor [2].
